Some compounds may have been tested in ways that are not shown here.
System: CD8+ T cells
Assay: In vitro immunogenicity of HLA-A*02 class I peptides: in vitro T-cell priming with aAPCs loaded with peptide/MHC complexes and anti-CD28 antibody, pMHC multimer readout
Format: cell-based, human
Conditions: HLA-A*02 peptides

ALSVRISNV was tested, and the Donors (healthy donors, specific multimer+ CD8+ T-cell line after in vitro stimulation) was “+++ (50%-70% = +++)” and the Wells (in vitro stimulated wells of healthy donors' CD8+ T cells, specific multimer+ readout) was “+ (<20% = +)”.

Reference: patent US11607446B2, “Personalized immunotherapy against several neuronal and brain tumors” (Immatics Biotechnologies GmbH, priority 2013, dated 2023)
